{"sequences": {"note": "Protein sequences, listed by entry. Tags and fused reporters are not part of them. Lines headed by an entry give the natural chain unless they say otherwise; changes in a name come on top.", "UniProt Q06187": "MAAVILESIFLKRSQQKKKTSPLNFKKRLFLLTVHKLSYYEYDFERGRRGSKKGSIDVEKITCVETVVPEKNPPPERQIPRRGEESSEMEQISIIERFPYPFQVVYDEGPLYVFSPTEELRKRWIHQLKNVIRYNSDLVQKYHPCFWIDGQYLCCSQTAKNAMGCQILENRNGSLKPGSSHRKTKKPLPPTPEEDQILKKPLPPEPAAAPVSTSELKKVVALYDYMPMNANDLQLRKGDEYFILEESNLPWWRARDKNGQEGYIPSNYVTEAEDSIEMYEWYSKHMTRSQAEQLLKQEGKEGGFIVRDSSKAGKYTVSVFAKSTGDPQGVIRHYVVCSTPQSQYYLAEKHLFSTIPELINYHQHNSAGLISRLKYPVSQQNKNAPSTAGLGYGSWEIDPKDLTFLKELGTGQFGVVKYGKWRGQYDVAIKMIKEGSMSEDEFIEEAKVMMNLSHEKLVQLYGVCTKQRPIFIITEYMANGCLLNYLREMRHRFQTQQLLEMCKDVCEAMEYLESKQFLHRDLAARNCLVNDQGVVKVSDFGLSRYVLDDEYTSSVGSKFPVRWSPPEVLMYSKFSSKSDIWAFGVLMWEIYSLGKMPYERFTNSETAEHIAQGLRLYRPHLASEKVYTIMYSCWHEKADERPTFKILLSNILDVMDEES"}, "source": "ChEMBL document CHEMBL5241098", "about": "“Progress in the development of small molecular inhibitors of the Bruton's tyrosine kinase (BTK) as a promising cancer therapy” (Bioorg Med Chem, 2021)", "target": "Tyrosine-protein kinase BTK (Homo sapiens, UniProt Q06187)", "experiment": "Irreversible inhibition of BTK (unknown origin)"}
{"smiles": "C=CC(=O)N1CCC(Nc2ncnc(N)c2-c2ccc(Oc3ccccc3)cc2)C1", "note": "(single isomer, unassigned)", "values": [{"measurement": "IC50", "result": 0.5, "unit": "nM"}]}
